According to patent US9062320B2, “Biological systems input-output response system and plant sentinels” (dated 2015):

How the values were obtained:
[1] = system: degreened transgenic Arabidopsis plants; assay: Regreening of degreened plants; conditions: 1 μM t-zeatin for 6 hours after degreening
[2] = system: PlantPho promoter; assay: Cytokinin-dependent GUS expression via PhoB:VP64 and PlantPho promoter; conditions: 0.5 μM t-zeatin, approximately 16 h

t-zeatin
effect on regreening process [1]: enhanced the process | Cytokinin-dependent induction of GUS expression [2]: up to 7.8 fold
